Assay results reported in PMC12102759 (Protein Science : A Publication of the Protein Society, 2025).

System: AP2M1 MU
Assay type: binding, human

With “VSDIDYVPLKSATA(averaged) D3T (VSTIDYVPLKSATA)” as the substance, how does the “PSSM value of the substitution, averaged over the two overlapping peptides” value (from here on “PSSM value … over the two overlapping peptides”) read?
The value was 0.00358.

How did the “PSSM value … over the two overlapping peptides” value turn out when “VSDIDYVPLKSATA(averaged) D3V (VSVIDYVPLKSATA)” was run?
The value was 0.

How did the “PSSM value … over the two overlapping peptides” value turn out when “VSDIDYVPLKSATA(averaged) D3W (VSWIDYVPLKSATA)” was run?
The value was 0.2116.

“VSDIDYVPLKSATA(averaged) D3Y (VSYIDYVPLKSATA)” was tested. Which “PSSM value … over the two overlapping peptides” value did it give?
Its value is 0.004856.

“VSDIDYVPLKSATA(averaged) D5A (VSDIAYVPLKSATA)” was tested. Which “PSSM value … over the two overlapping peptides” value did it give?
The value was 0.0009534.

Which “PSSM value … over the two overlapping peptides” value does the source give for VSDIDYVPLKSATA(averaged) D5D here?
Its value is 0.002722.

How did the “PSSM value … over the two overlapping peptides” value turn out when “VSDIDYVPLKSATA(averaged) D5E (VSDIEYVPLKSATA)” was run?
The value was 0.559.

Which “PSSM value … over the two overlapping peptides” value does the source give for “VSDIDYVPLKSATA(averaged) D5F (VSDIFYVPLKSATA)” here?
The value was 0.

Which “PSSM value … over the two overlapping peptides” value does the source give for “VSDIDYVPLKSATA(averaged) D5G (VSDIGYVPLKSATA)” here?
Its value is 0.000447.

Which “PSSM value … over the two overlapping peptides” value does the source give for “VSDIDYVPLKSATA(averaged) D5H (VSDIHYVPLKSATA)” here?
Its value is 0.008717.

Which “PSSM value … over the two overlapping peptides” value does the source give for “VSDIDYVPLKSATA(averaged) D5I (VSDIIYVPLKSATA)” here?
The value was 0.01463.

For “VSDIDYVPLKSATA(averaged) D5K (VSDIKYVPLKSATA)”, which “PSSM value … over the two overlapping peptides” value is on record?
Its value is 0.02269.

With “VSDIDYVPLKSATA(averaged) D5L (VSDILYVPLKSATA)” as the substance, how does the “PSSM value … over the two overlapping peptides” value read?
The value was 0.0002977.

For “VSDIDYVPLKSATA(averaged) D5M (VSDIMYVPLKSATA)”, which “PSSM value … over the two overlapping peptides” value is on record?
Its value is 0.1259.

Which “PSSM value … over the two overlapping peptides” value does the source give for “VSDIDYVPLKSATA(averaged) D5N (VSDINYVPLKSATA)” here?
The value was 0.03259.

For “VSDIDYVPLKSATA(averaged) D5P (VSDIPYVPLKSATA)”, which “PSSM value … over the two overlapping peptides” value is on record?
The value was 0.00109.

For “VSDIDYVPLKSATA(averaged) D5Q (VSDIQYVPLKSATA)”, which “PSSM value … over the two overlapping peptides” value is on record?
Its value is 0.002892.

How did the “PSSM value … over the two overlapping peptides” value turn out when “VSDIDYVPLKSATA(averaged) D5R (VSDIRYVPLKSATA)” was run?
The value was 8.698e-5.

For “VSDIDYVPLKSATA(averaged) D5S (VSDISYVPLKSATA)”, which “PSSM value … over the two overlapping peptides” value is on record?
Its value is 0.0009385.

Which “PSSM value … over the two overlapping peptides” value does the source give for “VSDIDYVPLKSATA(averaged) D5T (VSDITYVPLKSATA)” here?
Its value is 0.1629.

“VSDIDYVPLKSATA(averaged) D5V (VSDIVYVPLKSATA)” was tested. Which “PSSM value … over the two overlapping peptides” value did it give?
The value was 0.00146.

For “VSDIDYVPLKSATA(averaged) D5W (VSDIWYVPLKSATA)”, which “PSSM value … over the two overlapping peptides” value is on record?
The value was 0.000367.

“VSDIDYVPLKSATA(averaged) D5Y (VSDIYYVPLKSATA)” was tested. Which “PSSM value … over the two overlapping peptides” value did it give?
The value was 0.06229.

For “VSDIDYVPLKSATA(averaged) I4A (VSDADYVPLKSATA)”, which “PSSM value … over the two overlapping peptides” value is on record?
The value was 2.437e-5.

With “VSDIDYVPLKSATA(averaged) I4D (VSDDDYVPLKSATA)” as the substance, how does the “PSSM value … over the two overlapping peptides” value read?
The value was 0.0001019.

With “VSDIDYVPLKSATA(averaged) I4E (VSDEDYVPLKSATA)” as the substance, how does the “PSSM value … over the two overlapping peptides” value read?
The value was 0.

How did the “PSSM value … over the two overlapping peptides” value turn out when “VSDIDYVPLKSATA(averaged) I4F (VSDFDYVPLKSATA)” was run?
The value was 0.0003902.

“VSDIDYVPLKSATA(averaged) I4G (VSDGDYVPLKSATA)” was tested. Which “PSSM value … over the two overlapping peptides” value did it give?
The value was 0.

“VSDIDYVPLKSATA(averaged) I4H (VSDHDYVPLKSATA)” was tested. Which “PSSM value … over the two overlapping peptides” value did it give?
Its value is 0.00125.

VSDIDYVPLKSATA(averaged) I4I was tested. Which “PSSM value … over the two overlapping peptides” value did it give?
Its value is 0.0009213.

Which “PSSM value … over the two overlapping peptides” value does the source give for “VSDIDYVPLKSATA(averaged) I4K (VSDKDYVPLKSATA)” here?
The value was 0.

With “VSDIDYVPLKSATA(averaged) I4L (VSDLDYVPLKSATA)” as the substance, how does the “PSSM value … over the two overlapping peptides” value read?
Its value is 0.001167.

How did the “PSSM value … over the two overlapping peptides” value turn out when “VSDIDYVPLKSATA(averaged) I4M (VSDMDYVPLKSATA)” was run?
The value was 0.0004977.

How did the “PSSM value … over the two overlapping peptides” value turn out when “VSDIDYVPLKSATA(averaged) I4N (VSDNDYVPLKSATA)” was run?
The value was 5.668e-5.

For “VSDIDYVPLKSATA(averaged) I4P (VSDPDYVPLKSATA)”, which “PSSM value … over the two overlapping peptides” value is on record?
The value was 2.437e-5.

With “VSDIDYVPLKSATA(averaged) I4Q (VSDQDYVPLKSATA)” as the substance, how does the “PSSM value … over the two overlapping peptides” value read?
The value was 0.

How did the “PSSM value … over the two overlapping peptides” value turn out when “VSDIDYVPLKSATA(averaged) I4R (VSDRDYVPLKSATA)” was run?
The value was 0.

Which “PSSM value … over the two overlapping peptides” value does the source give for “VSDIDYVPLKSATA(averaged) I4S (VSDSDYVPLKSATA)” here?
Its value is 0.0001181.

Which “PSSM value … over the two overlapping peptides” value does the source give for “VSDIDYVPLKSATA(averaged) I4T (VSDTDYVPLKSATA)” here?
Its value is 0.

“VSDIDYVPLKSATA(averaged) I4V (VSDVDYVPLKSATA)” was tested. Which “PSSM value … over the two overlapping peptides” value did it give?
Its value is 0.0003603.

How did the “PSSM value … over the two overlapping peptides” value turn out when “VSDIDYVPLKSATA(averaged) I4W (VSDWDYVPLKSATA)” was run?
The value was 0.000276.

“VSDIDYVPLKSATA(averaged) I4Y (VSDYDYVPLKSATA)” was tested. Which “PSSM value … over the two overlapping peptides” value did it give?
The value was 0.9948.

For “VSDIDYVPLKSATA(averaged) K10A (VSDIDYVPLASATA)”, which “PSSM value … over the two overlapping peptides” value is on record?
The value was 0.0187.

With “VSDIDYVPLKSATA(averaged) K10D (VSDIDYVPLDSATA)” as the substance, how does the “PSSM value … over the two overlapping peptides” value read?
Its value is 0.0007026.

For “VSDIDYVPLKSATA(averaged) K10E (VSDIDYVPLESATA)”, which “PSSM value … over the two overlapping peptides” value is on record?
Its value is 0.2799.

How did the “PSSM value … over the two overlapping peptides” value turn out when “VSDIDYVPLKSATA(averaged) K10F (VSDIDYVPLFSATA)” was run?
The value was 0.0006958.

Which “PSSM value … over the two overlapping peptides” value does the source give for “VSDIDYVPLKSATA(averaged) K10G (VSDIDYVPLGSATA)” here?
The value was 0.001749.

How did the “PSSM value … over the two overlapping peptides” value turn out when “VSDIDYVPLKSATA(averaged) K10H (VSDIDYVPLHSATA)” was run?
Its value is 0.04501.

“VSDIDYVPLKSATA(averaged) K10I (VSDIDYVPLISATA)” was tested. Which “PSSM value … over the two overlapping peptides” value did it give?
Its value is 0.000105.

How did the “PSSM value … over the two overlapping peptides” value turn out when VSDIDYVPLKSATA(averaged) K10K was run?
The value was 0.001562.

How did the “PSSM value … over the two overlapping peptides” value turn out when “VSDIDYVPLKSATA(averaged) K10L (VSDIDYVPLLSATA)” was run?
The value was 0.001652.

Which “PSSM value … over the two overlapping peptides” value does the source give for “VSDIDYVPLKSATA(averaged) K10M (VSDIDYVPLMSATA)” here?
Its value is 0.0713.

For “VSDIDYVPLKSATA(averaged) K10N (VSDIDYVPLNSATA)”, which “PSSM value … over the two overlapping peptides” value is on record?
The value was 0.1335.

Which “PSSM value … over the two overlapping peptides” value does the source give for “VSDIDYVPLKSATA(averaged) K10P (VSDIDYVPLPSATA)” here?
Its value is 0.0009616.

For “VSDIDYVPLKSATA(averaged) K10Q (VSDIDYVPLQSATA)”, which “PSSM value … over the two overlapping peptides” value is on record?
Its value is 5.325e-5.

“VSDIDYVPLKSATA(averaged) K10R (VSDIDYVPLRSATA)” was tested. Which “PSSM value … over the two overlapping peptides” value did it give?
Its value is 0.0108.

For “VSDIDYVPLKSATA(averaged) K10S (VSDIDYVPLSSATA)”, which “PSSM value … over the two overlapping peptides” value is on record?
Its value is 0.4022.

For “VSDIDYVPLKSATA(averaged) K10T (VSDIDYVPLTSATA)”, which “PSSM value … over the two overlapping peptides” value is on record?
Its value is 0.01603.

Which “PSSM value … over the two overlapping peptides” value does the source give for “VSDIDYVPLKSATA(averaged) K10V (VSDIDYVPLVSATA)” here?
Its value is 0.0003789.

“VSDIDYVPLKSATA(averaged) K10W (VSDIDYVPLWSATA)” was tested. Which “PSSM value … over the two overlapping peptides” value did it give?
Its value is 0.0001065.

Which “PSSM value … over the two overlapping peptides” value does the source give for “VSDIDYVPLKSATA(averaged) K10Y (VSDIDYVPLYSATA)” here?
Its value is 0.01461.

“VSDIDYVPLKSATA(averaged) L9A (VSDIDYVPAKSATA)” was tested. Which “PSSM value … over the two overlapping peptides” value did it give?
Its value is 0.

Which “PSSM value … over the two overlapping peptides” value does the source give for “VSDIDYVPLKSATA(averaged) L9D (VSDIDYVPDKSATA)” here?
The value was 0.

Which “PSSM value … over the two overlapping peptides” value does the source give for “VSDIDYVPLKSATA(averaged) L9E (VSDIDYVPEKSATA)” here?
The value was 0.

Which “PSSM value … over the two overlapping peptides” value does the source give for “VSDIDYVPLKSATA(averaged) L9F (VSDIDYVPFKSATA)” here?
The value was 0.01344.

Which “PSSM value … over the two overlapping peptides” value does the source give for “VSDIDYVPLKSATA(averaged) L9G (VSDIDYVPGKSATA)” here?
Its value is 0.

Which “PSSM value … over the two overlapping peptides” value does the source give for “VSDIDYVPLKSATA(averaged) L9H (VSDIDYVPHKSATA)” here?
The value was 0.

How did the “PSSM value … over the two overlapping peptides” value turn out when “VSDIDYVPLKSATA(averaged) L9I (VSDIDYVPIKSATA)” was run?
The value was 0.2123.

How did the “PSSM value … over the two overlapping peptides” value turn out when “VSDIDYVPLKSATA(averaged) L9K (VSDIDYVPKKSATA)” was run?
Its value is 0.

VSDIDYVPLKSATA(averaged) L9L was tested. Which “PSSM value … over the two overlapping peptides” value did it give?
The value was 0.5696.

For “VSDIDYVPLKSATA(averaged) L9M (VSDIDYVPMKSATA)”, which “PSSM value … over the two overlapping peptides” value is on record?
Its value is 0.

Which “PSSM value … over the two overlapping peptides” value does the source give for “VSDIDYVPLKSATA(averaged) L9N (VSDIDYVPNKSATA)” here?
Its value is 0.

For “VSDIDYVPLKSATA(averaged) L9P (VSDIDYVPPKSATA)”, which “PSSM value … over the two overlapping peptides” value is on record?
Its value is 0.

For “VSDIDYVPLKSATA(averaged) L9Q (VSDIDYVPQKSATA)”, which “PSSM value … over the two overlapping peptides” value is on record?
The value was 0.
